Here are results for two molecules from patent US20160115186A1, “PHOSPHORIC ACID/PHOSPHONIC ACID DERIVATIVES AND MEDICINAL USES THEREOF” (priority 2013, published 2016).

Data set [1] in a line: Evaluation of liver targeting property (active drug in liver and blood, HPLC-MS/MS). Format: in vivo, Balb/C mice. Conditions: intragastric, dose equimolar to fosfomycin 200 mg/kg, active drug (free phosphonic or phosphoric acid). From the text:
Instrument: Finnigan Co. USA, TSQ Quantum-type liquid chromatography-mass spectrometry (LC/MS/MS), consisting of Finnigan Surveyor LC pump. Surveyor AS automatic sampler, electrospray ionization source (ESI) and triple tandem mass spectrometer. The control software is X calibur 1.4, Lcquan 2.0 data processing system is used for mass spectrometry data analysis. The chromatography column is Discovery ODS column (250 mm×4.6 mm, 5 μm), C18 guard column (4 mm×3.0 mm), the mobile phase is methanol-water-formic acid (10-30:90-70:0.5, V/V/V), the flow rate is 0.7 ml/min; the sample amount is 20 μL; and the column temperature is room temperature.

In the next data set the test system is DHBV. Format: in vivo, sheldrakes. The following applies: serum DHBV DNA, 50 mg/kg intragastric once a day for 14 days. The protocol:
The sheldrakes infected by vertical transmission and being positive in DHBV DNA detection were grouped randomly, 5/group. Water and different doses of the compound to be tested were intragastrically administrated, respectively, once a day, for 14 days. Venous blood samples were collected pre-dosing, at day 14 of dosing and at day 7 after drug withdrawal, the serum DHBV DNA content was measured using external standard TaqMan real-time fluorescence PCR method, and the inhibition ratio was calculated, as compared to the solvent group.

A further data set can be described thus: in vitro. Conditions: human; Hep G 2.2.15 cells, MTT, day 3 post-dosing. Format: cell-based. The protocol: Hep G 2.2.15 cells were inoculated in a 96-well plate (with cell number being 5.5×10^4) to continually cultivate for 3 days, new culture solutions containing different concentrations of drugs were added, and 3 wells were provided in parallel; at day 3 post-dosing, MTT was added until 7.5 mg/ml, and continued to cultivate for 2 hours, the supernate was discarded, isopropanol containing 10% […] was added, 120 μl/well, and 0.4 μl/well was further added.

Each structure is given as a SMILES string.

In data set [1] (1 h post-dosing), `CC(C)OC(=O)[C@H](C)N[P@](=O)(CO[C@H](C)Cn1cnc2c(N)ncnc21)Oc1ccccc1.O=C(O)/C=C/C(=O)O` [GS-7340, 9-[(R)-2-[[(S)-[[(S)-1-(isopropoxycarbonyl)-ethyl]-amino]-phenoxylphosphonyl]-methoxyl]-propyl]-adenine fumarate, reference compound] yielded a Cliver/Cblood of 6.12. In data set [1] (6 h post-dosing), this molecule yielded a Cliver/Cblood of 8.46. Besides, in the data set with DHBV, the “Inhibition ratio (%) Day 14 of dosing” value is 85.2% and the “Inhibition ratio (%) day 7 after drug withdrawal” value worked out at 23.1%.

Consider `Nc1ncnc2c1ncn2CCOCP(=O)(Oc1ccccc1)Oc1ccccc1` [i-1, 9-[[bis-(phenoxyl)-phosphonyl-methoxyl]-ethyl]-adenine, reference compound], for which, in the data set “in vitro”, the CC50 at 3 days is over 200 µM.

A word on the CC50: it is the concentration giving 50% cytotoxicity.
